Experimental findings from doi:10.1101/471615v1 (biorxiv, 2018) are described below.

This assay deals with T1, GAK (InCELL Pulse) (Homo sapiens, UniProt O14976).
T1 sequence (O14976 2-1311): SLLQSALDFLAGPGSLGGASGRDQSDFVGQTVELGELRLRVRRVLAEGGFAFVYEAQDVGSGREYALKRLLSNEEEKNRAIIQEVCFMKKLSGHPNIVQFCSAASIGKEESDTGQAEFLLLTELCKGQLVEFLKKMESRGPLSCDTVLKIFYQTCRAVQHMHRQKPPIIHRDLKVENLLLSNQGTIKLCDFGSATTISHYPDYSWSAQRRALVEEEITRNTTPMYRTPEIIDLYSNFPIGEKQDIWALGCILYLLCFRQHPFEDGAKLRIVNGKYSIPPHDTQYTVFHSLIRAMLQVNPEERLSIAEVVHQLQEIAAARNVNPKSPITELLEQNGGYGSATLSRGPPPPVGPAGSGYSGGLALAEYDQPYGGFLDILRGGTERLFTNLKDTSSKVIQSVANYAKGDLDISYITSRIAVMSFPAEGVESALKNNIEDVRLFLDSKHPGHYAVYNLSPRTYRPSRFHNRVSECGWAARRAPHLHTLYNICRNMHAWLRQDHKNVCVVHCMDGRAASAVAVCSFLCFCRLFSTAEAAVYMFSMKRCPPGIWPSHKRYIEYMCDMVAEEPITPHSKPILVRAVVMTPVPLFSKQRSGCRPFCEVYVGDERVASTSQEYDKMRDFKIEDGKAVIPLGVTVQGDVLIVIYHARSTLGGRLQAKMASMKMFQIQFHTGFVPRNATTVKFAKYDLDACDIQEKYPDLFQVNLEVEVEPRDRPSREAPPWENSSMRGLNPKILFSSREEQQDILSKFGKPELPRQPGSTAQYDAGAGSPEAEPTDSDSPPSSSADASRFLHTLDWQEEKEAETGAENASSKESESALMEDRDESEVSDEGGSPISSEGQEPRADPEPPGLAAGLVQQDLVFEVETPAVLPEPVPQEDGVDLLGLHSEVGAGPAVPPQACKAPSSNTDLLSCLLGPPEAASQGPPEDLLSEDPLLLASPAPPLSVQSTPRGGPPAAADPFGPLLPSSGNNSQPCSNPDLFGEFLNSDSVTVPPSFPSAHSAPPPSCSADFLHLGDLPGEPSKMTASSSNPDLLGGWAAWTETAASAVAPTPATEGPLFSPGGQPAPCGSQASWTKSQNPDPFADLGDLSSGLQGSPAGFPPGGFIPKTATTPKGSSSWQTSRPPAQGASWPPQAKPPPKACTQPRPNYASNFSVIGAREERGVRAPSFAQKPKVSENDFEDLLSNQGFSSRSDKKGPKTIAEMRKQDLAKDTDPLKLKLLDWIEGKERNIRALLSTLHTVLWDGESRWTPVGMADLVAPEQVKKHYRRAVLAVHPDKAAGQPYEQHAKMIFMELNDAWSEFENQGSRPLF
In words: InCELL Pulse cellular target engagement. It is filed as cell-based. Particulars: in cells.

For orientation: IC50 means the point on the concentration scale where inhibition reaches its midpoint. A low value points to inhibition by little substance. In turn, `COc1cc(Nc2ccnc3ccc(Br)cc23)cc(OC)c1OC` [compound 5, 6-bromo compound (5)] came in with an IC50 of 200 nM.
